From US9957247B2, “SecA inhibitors and methods of making and using thereof” (Georgia State University Research Foundation, Inc., priority 2012, dated 2018)

Chains of the proteins cited; added tags and fusions are not shown.
UniProt P28366, whole entry: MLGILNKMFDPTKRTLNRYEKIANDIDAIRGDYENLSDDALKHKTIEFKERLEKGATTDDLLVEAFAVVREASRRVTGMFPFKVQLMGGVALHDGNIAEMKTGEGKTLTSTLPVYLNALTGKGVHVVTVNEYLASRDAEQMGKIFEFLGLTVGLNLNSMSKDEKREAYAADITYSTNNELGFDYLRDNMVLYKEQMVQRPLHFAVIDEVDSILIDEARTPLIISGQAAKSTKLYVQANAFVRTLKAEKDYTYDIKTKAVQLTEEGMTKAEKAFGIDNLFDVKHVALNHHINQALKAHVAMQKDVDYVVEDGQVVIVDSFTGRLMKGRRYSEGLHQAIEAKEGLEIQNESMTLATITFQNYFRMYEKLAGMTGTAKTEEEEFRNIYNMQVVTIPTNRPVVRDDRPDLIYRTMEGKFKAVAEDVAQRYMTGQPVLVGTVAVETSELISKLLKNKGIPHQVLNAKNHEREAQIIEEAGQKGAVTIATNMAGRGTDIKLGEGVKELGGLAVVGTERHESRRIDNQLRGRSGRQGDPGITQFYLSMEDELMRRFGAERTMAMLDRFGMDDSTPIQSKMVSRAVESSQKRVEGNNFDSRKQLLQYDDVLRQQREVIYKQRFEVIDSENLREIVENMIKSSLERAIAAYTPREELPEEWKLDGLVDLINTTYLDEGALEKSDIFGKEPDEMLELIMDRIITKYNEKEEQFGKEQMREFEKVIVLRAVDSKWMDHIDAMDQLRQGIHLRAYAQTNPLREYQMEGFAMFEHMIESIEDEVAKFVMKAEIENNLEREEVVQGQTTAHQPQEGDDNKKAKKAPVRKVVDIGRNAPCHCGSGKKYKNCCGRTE
UniProt P10408, whole entry: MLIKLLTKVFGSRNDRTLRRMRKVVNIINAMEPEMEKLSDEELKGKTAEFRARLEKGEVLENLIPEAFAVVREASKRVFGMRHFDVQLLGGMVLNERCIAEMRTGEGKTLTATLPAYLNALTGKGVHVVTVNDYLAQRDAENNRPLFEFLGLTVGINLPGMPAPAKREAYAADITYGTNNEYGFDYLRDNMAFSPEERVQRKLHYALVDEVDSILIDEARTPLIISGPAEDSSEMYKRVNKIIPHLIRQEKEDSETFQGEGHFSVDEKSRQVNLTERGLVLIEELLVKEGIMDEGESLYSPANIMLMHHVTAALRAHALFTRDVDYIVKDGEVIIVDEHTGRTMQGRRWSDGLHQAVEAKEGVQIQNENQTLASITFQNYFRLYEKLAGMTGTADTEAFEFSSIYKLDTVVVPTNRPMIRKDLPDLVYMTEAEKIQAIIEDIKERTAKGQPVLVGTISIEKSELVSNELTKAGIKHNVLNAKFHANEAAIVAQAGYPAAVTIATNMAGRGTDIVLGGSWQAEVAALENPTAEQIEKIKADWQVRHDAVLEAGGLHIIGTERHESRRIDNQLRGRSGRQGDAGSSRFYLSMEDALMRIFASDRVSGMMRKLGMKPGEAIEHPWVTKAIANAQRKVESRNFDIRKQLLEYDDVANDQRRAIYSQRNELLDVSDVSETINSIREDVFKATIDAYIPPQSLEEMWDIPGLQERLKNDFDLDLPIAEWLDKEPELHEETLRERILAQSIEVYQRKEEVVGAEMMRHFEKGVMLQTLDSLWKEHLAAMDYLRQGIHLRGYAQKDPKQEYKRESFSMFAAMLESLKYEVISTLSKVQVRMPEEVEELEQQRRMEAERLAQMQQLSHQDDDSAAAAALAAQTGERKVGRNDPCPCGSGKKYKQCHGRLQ
UniProt P0AG96, whole entry partner: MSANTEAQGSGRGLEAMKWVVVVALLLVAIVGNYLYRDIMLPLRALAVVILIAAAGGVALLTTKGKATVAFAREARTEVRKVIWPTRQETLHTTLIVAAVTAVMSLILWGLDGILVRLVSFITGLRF
UniProt P0AGA2, whole entry partner: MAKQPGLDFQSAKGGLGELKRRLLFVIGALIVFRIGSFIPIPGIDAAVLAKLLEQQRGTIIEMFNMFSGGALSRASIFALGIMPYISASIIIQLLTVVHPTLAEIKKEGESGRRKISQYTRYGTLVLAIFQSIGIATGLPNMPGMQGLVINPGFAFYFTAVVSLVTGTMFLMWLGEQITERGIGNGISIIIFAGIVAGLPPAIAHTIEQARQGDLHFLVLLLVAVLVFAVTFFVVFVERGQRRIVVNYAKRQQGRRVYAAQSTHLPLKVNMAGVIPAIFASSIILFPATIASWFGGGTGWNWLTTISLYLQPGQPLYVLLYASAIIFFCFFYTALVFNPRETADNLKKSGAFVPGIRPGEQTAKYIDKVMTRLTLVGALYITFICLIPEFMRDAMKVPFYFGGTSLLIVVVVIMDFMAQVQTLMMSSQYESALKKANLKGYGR
UniProt P0AG99, whole entry partner: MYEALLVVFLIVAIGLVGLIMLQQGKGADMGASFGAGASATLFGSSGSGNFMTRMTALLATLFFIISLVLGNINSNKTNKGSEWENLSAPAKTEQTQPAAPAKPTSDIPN

What was measured:
BsSecA = BsSecA (Bacillus subtilis, UniProt P28366)
EcSecA = EcSecA (Escherichia coli, UniProt P10408)

FC(F)(F)c1cc(-c2nnc(Sc3cc(Cl)nc(Sc4ccccc4)n3)[nH]2)cc(C(F)(F)F)c1
IC50 (BsSecA): > 200 µM
IC50 (EcSecA): 5 µM
